Results taken from ChEMBL document CHEMBL1155461, “Emerging targets in osteoporosis disease modification” (J Med Chem, 2010).

Amino acid sequences for entries named in this document (tags omitted). A change or cut given only in a name is not applied to a line headed by its entry.
UniProt P34972, whole entry: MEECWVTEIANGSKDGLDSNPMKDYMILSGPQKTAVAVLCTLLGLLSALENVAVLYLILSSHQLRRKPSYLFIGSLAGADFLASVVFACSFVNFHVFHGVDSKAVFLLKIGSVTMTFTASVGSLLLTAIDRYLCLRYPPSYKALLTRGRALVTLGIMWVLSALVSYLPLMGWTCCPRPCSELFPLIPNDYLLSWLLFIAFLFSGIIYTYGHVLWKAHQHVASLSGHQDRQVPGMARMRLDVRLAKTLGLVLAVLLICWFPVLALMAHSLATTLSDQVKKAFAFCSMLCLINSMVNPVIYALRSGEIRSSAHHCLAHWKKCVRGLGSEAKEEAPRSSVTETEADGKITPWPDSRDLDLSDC
UniProt P43116: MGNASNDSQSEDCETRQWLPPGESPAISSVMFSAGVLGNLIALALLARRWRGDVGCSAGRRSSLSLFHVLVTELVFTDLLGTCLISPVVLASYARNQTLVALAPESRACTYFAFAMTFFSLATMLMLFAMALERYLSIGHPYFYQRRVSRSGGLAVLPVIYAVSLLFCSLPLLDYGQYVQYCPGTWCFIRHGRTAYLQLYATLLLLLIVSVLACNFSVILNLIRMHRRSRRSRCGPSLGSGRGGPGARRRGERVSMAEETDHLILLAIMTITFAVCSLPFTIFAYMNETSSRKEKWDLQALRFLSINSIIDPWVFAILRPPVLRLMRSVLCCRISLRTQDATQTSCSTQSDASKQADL

How the values were obtained:
Cannabinoid receptor 2 [1] = target: T1, Cannabinoid receptor 2 (Homo sapiens, UniProt P34972); test: Displacement of [3H]CP-55940 from human cannabinoid CB2 receptor expressed in CHO cells; type: cell-based
[2] = target: Prostaglandin E2 receptor EP2 subtype (Homo sapiens, UniProt P43116); test: Binding affinity to EP2 receptor
Cannabinoid receptor 2 [3] = target: T1, Cannabinoid receptor 2; test: Binding affinity to cannabinoid CB2 receptor

For `C=C(C)[C@@H]1CCC(C)=C[C@H]1c1c(O)cc(CCCCC)cc1O` [CANNABIDIOL], the Ki (Cannabinoid receptor 2 [1]) was 10 µM.
Work on `CCCCC[C@H](O)/C=C/[C@H]1[C@H](O)CC(=O)[C@@H]1C/C=C\CCCC(=O)O` [DINOPROSTONE] yielded an IC50 [2] of 0.0377 µM.
`Cc1c(C(=O)NN2CCCCC2)nn(-c2ccc(Cl)cc2Cl)c1-c1ccc(I)cc1` showed a Ki (Cannabinoid receptor 2 [3]) of 2.29 µM.
